Measurements taken from patent publication US20070160501A1, “Device and method for treating a crystal by applying microdrops thereto” (PROTEROS BIOSTRUCTURES GMBH, priority 2003, published 2007).

Sequences of proteins named here, by UniProt entry; tags and fusion partners are left off. A change or cut given only in a name is not applied to a line headed by its entry.
UniProt P22411: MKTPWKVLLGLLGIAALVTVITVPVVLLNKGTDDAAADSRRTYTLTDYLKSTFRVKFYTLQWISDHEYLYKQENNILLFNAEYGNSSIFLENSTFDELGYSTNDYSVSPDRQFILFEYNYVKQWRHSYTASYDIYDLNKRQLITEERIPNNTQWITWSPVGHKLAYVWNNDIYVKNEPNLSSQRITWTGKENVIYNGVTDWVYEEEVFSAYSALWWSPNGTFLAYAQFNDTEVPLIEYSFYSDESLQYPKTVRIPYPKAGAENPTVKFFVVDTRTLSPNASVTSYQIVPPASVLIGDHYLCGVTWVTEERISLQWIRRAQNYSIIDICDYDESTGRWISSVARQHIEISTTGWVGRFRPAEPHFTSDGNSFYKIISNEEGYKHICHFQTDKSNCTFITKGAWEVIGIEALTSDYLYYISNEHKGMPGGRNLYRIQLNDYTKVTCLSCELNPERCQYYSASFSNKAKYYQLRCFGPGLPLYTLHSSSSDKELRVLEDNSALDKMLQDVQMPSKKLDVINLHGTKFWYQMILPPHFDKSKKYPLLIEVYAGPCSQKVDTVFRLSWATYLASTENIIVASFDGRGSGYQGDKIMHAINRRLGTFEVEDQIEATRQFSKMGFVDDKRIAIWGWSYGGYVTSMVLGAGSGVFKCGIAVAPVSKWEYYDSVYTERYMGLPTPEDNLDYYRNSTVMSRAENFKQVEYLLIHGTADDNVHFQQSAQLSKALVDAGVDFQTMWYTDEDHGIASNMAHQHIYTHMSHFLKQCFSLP

Molecular target: Porcine Dipeptidyl Peptidase IV (DPIV) (Sus scrofa, UniProt P22411)
Experiment: Binding of diprotin A to a freely mounted DPIV crystal by dripping on microdrops, X-ray crystallographic examination
Conditions: 50 mM aqueous diprotin A dripped on DPIV crystal; active center around Ser630; FIG. 5
Description: In the present experiment, a crystal of the DPIV was mounted by means of the free mounting system at a previously determined initial humidity of 97%. For optimization, humidity was decreased in a gradient of 0.5% humidity alteration per 60 s down to 89% r.h. The transformation of the crystal, which is characterized by a significant increase in resolution, already starts at 94% r.h. and reaches its maximum at 89% r.h. Therefore, humidity was kept constant during dripping-on.
An inhibitor solution of aqueous diprotin A solution (50 mM) was used as ligand. With the use of an aqueous solution, smaller drop sizes can be achieved than in comparison with organic solvents, as a result of which the crystal is treated even more gently. […] The total amount of inhibitor dripped on corresponds to an approximately 10-fold molar surplus. The individual parameters of the experiment can be taken from Table 3.
After completion of dripping-on, the crystal was moistened with PFPE oil (perfluoropolyether) as cryo protectant and frozen in liquid nitrogen. The subsequent recording of an X-ray crystallographic data record was conducted on a rotating copper anode.
Data processing was conducted by means of the programs XDS and XSCALE, refinement and manual model construction were conducted by means of the programs CNX and O. The statistics of data collection, processing, and refinement are given in Table 4.

For diprotin A, the “binding mode / mechanism seen in the electron density” value was “rather acts as a suicide substrate than as an inhibitor”.
